Earlier results in article PMC3063522 (Journal of agricultural and food chemistry, 2011).

Conditions: homologous standards for the HPLC regression; cited from earlier work

Structure (SMILES): CCCCc1ccccc1 [butylbenzene]
- log P (known constants of standards): 4.26
